Values quoted from earlier work, collected in paper PMC10907374, “G2019S selective LRRK2 kinase inhibitor abrogates mitochondrial DNA damage” (NPJ Parkinson's Disease, 2024).

Test system: LRRK2 kinase
Settings: cited from earlier work

Q: With `CNc1nc(Nc2cn(C(C)(C)C#N)nc2C)ncc1C(F)(F)F` [DNL201] as the compound, how does the “blood brain barrier crossing” value (humans, based on inhibitor concentrations in cerebrospinal fluid ref 15) read?
A: The value was “able to cross the blood brain barrier”.

Q: What about the lung function (single-ascending or multiple-ascending dose (10 days) cohorts, healthy volunteers or PD patients ref 15) of the same compound?
A: Its lung function is “did not seem to be impacted”.
